Source: ChEMBL document CHEMBL5625219, “Design, synthesis fusidic acid derivatives alleviate acute lung injury via inhibiting MAPK/NF-κB/NLRP3 pathway” (Eur J Med Chem, 2023)

Experiments:
Assay type in all cases: functional, cell-based
Details in all cases: time 24.0 hrs
[1] = test system: RAW264.7; assay: Anti-inflammatory activity in mouse RAW264.7 cells assessed as inhibition of LPS-induced TNF-alpha production preincubated with compound for 1 hrs followed by LPS stimulation and measured after 23 hrs by ELISA
[2] = test system: RAW264.7; assay: Anti-inflammatory activity in mouse RAW264.7 cells assessed as inhibition of LPS-induced IL-6 production preincubated with compound for 1 hrs followed by LPS stimulation and measured after 23 hrs by ELISA
[3] = test system: RAW264.7; assay: Anti-inflammatory activity in mouse RAW264.7 cells assessed as inhibition of LPS-induced NO production preincubated with compound for 1 hrs followed by LPS stimulation and measured after 23 hrs by Griess reagent based method

Measured: Activity

CC(=O)O[C@H]1C[C@@]2(C)[C@@H](C[C@@H](O)[C@H]3[C@@]4(C)CC[C@@H](O)[C@@H](C)[C@@H]4CC[C@@]32C)/C1=C(\CCC=C(C)C)C(=O)OCc1cn(-c2ccccc2)nn1
active: [1] Dose-Dependent Effect | [2] Dose-Dependent Effect | [3] Dose-Dependent Effect
